The text below walks through data of US10071965B2, “Pyridone FabI inhibitors and uses thereof” (priority 2015, dated 2018).

For one assay, the target named is ecFabI (Escherichia coli (strain K12), UniProt P0AEK4). Nature of the assay: ecFabI inhibition kinetics. Conditions: single point progress curve analysis. Type of assay: biochemical.
The next assay addresses saFabI (Staphylococcus aureus (strain MRSA252), UniProt Q6GI75). Conditions: read-out: Ki^app, [S]/KS = 2, binds to the E-NADP+ binary complex, from Ref 31; cited from earlier work.

Where two headings read alike, the source gives them in different places.

For `CCc1ccc(Oc2ccccc2)c(O)c1` [PT01, 5-ethyl-2-phenoxyphenol], the Ki at ecFabI (Ki (nM), binds E-NAD+ binary complex) is 0.2 nM; on ecFabI ([S]/KS = 0.19, binds E-NAD+ binary complex, read-out: Ki^app), 33.6 nM; at saFabI it was 121 ± 10.1 nM.
